Test results as given in paper PMC10756763, “Biosynthesis, herbivore induction, and defensive role of phenylacetaldoxime glucoside” (Plant Physiology, 2023).

Tests used:
CYP79A207 = target: T1, CYP79A207 (Miconia microphysca, UniProt A0AA50KHK6); assay: aldoxime formation by yeast microsomes, LC-MS/MS; assay type: biochemical; settings: 1 mM substrate, 1 mM NADPH, 75 mM sodium phosphate pH 7.0, 25 °C
T1 sequence (A0AA50KHK6 1-555): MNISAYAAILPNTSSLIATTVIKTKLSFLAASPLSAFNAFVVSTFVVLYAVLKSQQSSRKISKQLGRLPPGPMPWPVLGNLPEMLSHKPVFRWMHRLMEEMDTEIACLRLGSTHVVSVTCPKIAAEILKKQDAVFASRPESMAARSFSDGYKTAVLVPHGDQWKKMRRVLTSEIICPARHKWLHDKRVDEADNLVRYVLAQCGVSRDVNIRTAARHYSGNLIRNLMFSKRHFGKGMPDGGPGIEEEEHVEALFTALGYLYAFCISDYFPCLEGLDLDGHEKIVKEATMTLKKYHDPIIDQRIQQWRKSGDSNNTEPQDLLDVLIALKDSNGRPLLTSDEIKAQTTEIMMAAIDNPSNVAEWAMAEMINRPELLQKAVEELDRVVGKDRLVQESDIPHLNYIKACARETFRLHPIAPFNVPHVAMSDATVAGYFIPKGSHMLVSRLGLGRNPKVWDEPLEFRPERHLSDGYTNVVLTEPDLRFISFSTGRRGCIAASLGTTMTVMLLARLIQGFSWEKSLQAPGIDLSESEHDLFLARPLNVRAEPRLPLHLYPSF

CYP79A206 = target: T2, CYP79A206 (Miconia microphysca, UniProt A0AA50KI25); assay: aldoxime formation by yeast microsomes, LC-MS/MS; assay type: biochemical; settings: 1 mM substrate, 1 mM NADPH, 75 mM sodium phosphate pH 7.0, 25 °C
T2 sequence (A0AA50KI25 1-555): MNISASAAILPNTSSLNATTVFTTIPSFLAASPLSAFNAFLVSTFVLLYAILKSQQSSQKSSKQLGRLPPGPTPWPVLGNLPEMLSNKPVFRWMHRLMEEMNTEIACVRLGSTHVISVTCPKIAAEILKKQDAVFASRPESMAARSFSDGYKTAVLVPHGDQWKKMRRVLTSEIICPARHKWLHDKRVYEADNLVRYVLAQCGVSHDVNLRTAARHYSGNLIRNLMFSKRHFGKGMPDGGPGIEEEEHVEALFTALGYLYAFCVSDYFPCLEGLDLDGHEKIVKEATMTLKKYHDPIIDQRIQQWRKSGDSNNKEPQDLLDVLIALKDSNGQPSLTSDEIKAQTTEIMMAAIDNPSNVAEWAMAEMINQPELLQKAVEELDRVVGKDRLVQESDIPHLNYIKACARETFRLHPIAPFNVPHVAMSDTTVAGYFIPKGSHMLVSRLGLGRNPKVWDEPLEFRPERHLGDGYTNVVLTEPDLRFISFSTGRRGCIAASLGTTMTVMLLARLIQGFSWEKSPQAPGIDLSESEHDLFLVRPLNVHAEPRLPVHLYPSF

For N[C@@H](Cc1ccc(O)cc1)C(=O)O [L-tyrosine], the “aldoxime formation by yeast microsomes, LC-MS/MS” value (CYP79A207) was “microsomes containing CYP79A206 or CYP79A207 with L-phenylalanine, L-tyrosine, or L-tryptophan” and the “aldoxime formation by yeast microsomes, LC-MS/MS” value (CYP79A206) was “microsomes containing CYP79A206 or CYP79A207 with L-phenylalanine, L-tyrosine, or L-tryptophan”.
